Earlier results as cited in patent US5891845A, “Drug delivery systems utilizing liquid crystal structures” (Fuisz Technologies Ltd., priority 1997, dated 1999).

Conditions: beyond which liquid crystalline phases may form

concentration up to which solutions with water form: approximately 20 % wt
Substance: d-α-tocopheryl polyethylene glycol 1000 succinate [Vitamin E TPGS]
